Key:
[1] = system: PFV IN; type: binding, prototype foamy virus (PFV); conditions: DSF, SYPRO Orange, 20 mM HEPES pH 7.5, 150 mM NaCl; protein 7 μM; 3-fold molar excess of defensin; protein alone 47.6 ± 0.1; error = SEM
Excerpt: (§1) Differential scanning fluorimetry (DSF)

[2] = system: TEV Protease; type: binding, tobacco etch virus (TEV); conditions: DSF, SYPRO Orange, 20 mM HEPES pH 7.5, 150 mM NaCl; protein 5 μM; 3-fold molar excess of defensin; protein alone 43.7 ± 0.2; error = SEM
Excerpt: as §1

## HNP-1: human neutrophil α-defensin peptide HNP-1, prepared by solid-phase peptide synthesis
[1]
  Melting temperature (Tm) of PFV IN: 43.3 ± 0.1 °C
[2]
  Melting temperature (Tm) of TEV Protease: 34.9 ± 0.2 °C

From paper PMC5007486, “Thermodynamic instability of viral proteins is a pathogen-associated molecular pattern targeted by human defensins” (Scientific Reports, 2016)
